Test results published in patent US20250090564A1.

Test: In vitro digestion of blackcurrant juice concentrate (pepsin/acid, bile salts/pancreatin), LCMS
Format: in vitro ADME
Details: esters: steps 3 through 5; sarmentosin: steps 3 and 4; FIGS. 32 and 33
Description: Samples were taken at the end of 1st step and at 30 min intervals in the 2nd step to give 6 samples for analysis. The samples will be examined (LCMS) for the level of sarmentosin and sarmentosin esters and compared with the feed material. The two samples were treated as shown below in Table 17 to replicate digestion. [table] Samples taken from the subsequent treatments were stored frozen until required for analysis. The samples were all a similar volume and concentration of original juice. Analysis was performed using LCMS (method described in the earlier work). Samples were prepared in two ways, 1. addition of methanol to precipitate any protein or 2. Direct sampling of neat solution after centrifugation.

nigrumin ferulate
concentration after in vitro digestion steps: decrease
